Tests used:
KARPAS-422 = test: cells; conditions: Homo sapiens, KARPAS-422, 168 h
Pfeiffer = test: Growth inhibition of human Pfeiffer cells incubated for 7 days by WST8 assay; format: functional, cell-based; conditions: 168 h

Compound | IC50 (KARPAS-422) | IC50 (Pfeiffer)
c1ccc(-c2cnc(NCc3ccco3)n3cncc23)cc1 | 2600 nM | –
Cc1ccc(-c2cnc(NCc3c(F)ccc4c3CCO4)n3cnc(S(C)(=O)=O)c23)c(C)n1 | 2.8 nM | 0.07 nM
CCOC(=O)c1ncn2c(NCc3c(F)ccc4c3CCO4)ncc(-c3ccccc3)c12 | 12 nM | –
CCOC(=O)c1ncn2c(NCc3ccccc3OC)ncc(-c3ccccc3)c12 | 1900 nM | –
